Data published in US20080214563A1, “Benzimidazole Thiophene Compounds As Plk Modulators” (priority 2005, published 2008).

The chains behind the UniProt entries cited, without tags or fusion partners. Residues count along the entry.
UniProt P53350, 21-346 limits assumed: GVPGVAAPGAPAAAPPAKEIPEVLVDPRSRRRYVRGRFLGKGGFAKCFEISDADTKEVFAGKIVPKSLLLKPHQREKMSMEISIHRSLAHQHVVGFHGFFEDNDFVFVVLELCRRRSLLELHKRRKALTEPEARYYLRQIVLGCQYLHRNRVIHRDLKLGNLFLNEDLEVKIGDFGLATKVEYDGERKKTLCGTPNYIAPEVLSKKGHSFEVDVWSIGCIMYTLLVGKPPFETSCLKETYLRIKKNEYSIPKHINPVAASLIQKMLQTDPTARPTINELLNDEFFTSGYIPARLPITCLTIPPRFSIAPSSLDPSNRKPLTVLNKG

Legend:
[1] = system: Normal human foreskin fibroblasts (HFF); assay: Methylene Blue Cell Growth Inhibition Assay, HFF; conditions: read-out: MEB HFF IC50, 72 h
[2] = system: H460; assay: Methylene Blue Cell Growth Inhibition Assay, H460; conditions: read-out: MEB H460 IC50, 72 h
[3] = system: RKO; assay: Methylene Blue Cell Growth Inhibition Assay, RKO; conditions: read-out: MEB RKO IC50, 72 h
[4] = system: A549; assay: Methylene Blue Cell Growth Inhibition Assay, A549; conditions: read-out: MEB A549 IC50, 72 h
[5] = system: A549-L; assay: Cell-Titer Glo Cell Growth Inhibition Assay, A549-L; conditions: read-out: CTG A549-L IC50, CellTiter-Glo, 72 h
[6] = system: HCT116; assay: Methylene Blue Cell Growth Inhibition Assay, HCT116; conditions: read-out: MEB HCT116 IC50, 72 h
[7] = system: Hela; assay: Cell-Titer Glo Cell Growth Inhibition Assay, Hela; conditions: read-out: CTG Hela IC50, CellTiter-Glo, 72 h
[8] = system: HCT-116; assay: Cell-Titer Glo Cell Growth Inhibition Assay, HCT116; conditions: read-out: CTG HCT116 IC50, CellTiter-Glo, 72 h
[9] = system: MCF7; assay: Cell-Titer Glo Cell Growth Inhibition Assay, MCF7; conditions: read-out: CTG MCF7 IC50, CellTiter-Glo, 72 h
[10] = system: MCF7; assay: Methylene Blue Cell Growth Inhibition Assay, MCF7; conditions: read-out: MEB MCF7 IC50, 72 h
[11] = Intravenous pharmacokinetics in CD-1 mouse; conditions: iv bolus, male CD-1 mouse; for Plasma CL: dose 1.9-7.4 mg/kg per compound (Table 3)
[12] = system: H1299; assay: Cell-Titer Glo Cell Growth Inhibition Assay, H1299; conditions: read-out: CTG H1299 IC50, CellTiter-Glo, 72 h
[13] = system: MX-1; assay: Cell-Titer Glo Cell Growth Inhibition Assay, MX-1; conditions: read-out: CTG MX-1 IC50, CellTiter-Glo, 72 h
[14] = system: Colo 205; assay: Cell-Titer Glo Cell Growth Inhibition Assay, COLO205; conditions: read-out: CTG COLO205 IC50, CellTiter-Glo, 72 h
[15] = system: MDA-MB468; assay: Cell-Titer Glo Cell Growth Inhibition Assay, MDA-MB468; conditions: read-out: CTG MDA-MB468 IC50, CellTiter-Glo, 72 h
[16] = system: HT29; assay: Cell-Titer Glo Cell Growth Inhibition Assay, HT29; conditions: read-out: CTG HT29 IC50, CellTiter-Glo, 72 h
[17] = system: SKOV3; assay: Cell-Titer Glo Cell Growth Inhibition Assay, SKOV-3; conditions: read-out: CTG SKOV-3 IC50, CellTiter-Glo, 72 h
[18] = system: MX-1; assay: Methylene Blue Cell Growth Inhibition Assay, MX-1; conditions: read-out: MEB MX-1 IC50, 72 h
[19] = molecular target: PLK1 kinase domain (Homo sapiens, UniProt P53350); assay: Assay for Inhibition of PLK1 (33P SPA kinase assay); format: biochemical; conditions: 2 nM PLK1 kinase domain, 1 μM ATP

For COc1cc2ncn(-c3cc(O[C@H](C)c4ccccc4Cl)c(C(N)=O)s3)c2cc1OC, the IC50 [1] was 100 to 1000 nM, the IC50 [2] was < 100 nM and the IC50 [3] was < 100 nM. The IC50 [4] was < 100 nM, the IC50 [5] was < 100 nM and the IC50 [6] was < 100 nM. The IC50 [7] was < 100 nM, the IC50 [8] was < 100 nM and the IC50 [9] was < 100 nM. The IC50 [10] was < 100 nM, the “AUC (0-t), 0-4 h” value ([11]; 4 mg/kg, 0-4 h) was 730* ng * h/mL and the “Plasma CL” value [11] was 90.85 mL/min/kg. The IC50 [12] was < 100 nM, the IC50 [13] was < 100 nM and the IC50 [14] was < 100 nM. The IC50 [15] was < 100 nM, the IC50 [16] was < 100 nM and the IC50 [17] was < 100 nM. For the same molecule, the IC50 [18] was < 100 nM.
In the case of COc1cc2ncn(-c3cc(O[C@@H](C)c4ccccc4Cl)c(C(N)=O)s3)c2cc1OC, the IC50 [1] is reported as > 1000 nM, the IC50 [2] is reported as > 1000 nM and the IC50 [3] is reported as > 1000 nM. The IC50 [4] was > 1000 nM, the IC50 [6] was > 1000 nM and the IC50 [10] was > 1000 nM.
In the case of COc1cc2ncn(-c3cc(O[C@H](C)c4ccccc4C(F)(F)F)c(C(N)=O)s3)c2cc1OC, the IC50 [2] is reported as < 100 nM, the IC50 [3] is reported as < 100 nM and the IC50 [4] is reported as < 100 nM. For the same molecule, the IC50 [6] was < 100 nM, the IC50 [10] was < 100 nM and the “AUC (0-t), 0-1 h” value ([11]; 2.5 mg/kg, 0-1 h) was 400** ng * h/mL. For the same molecule, the “Plasma CL” value [11] was 98.6 mL/min/kg and the “PLK1 pIC50” value [19] was “+++ (pIC50>8)”.

Marks after values point to notes of the source that are not given here.
